Among the data in patent US6841359 are Kd, koff and kon values, retold here.

In assay [1] the target is streptavidin (UniProt P22629). The experiment in a line: Biacore SPR, calculated from the association and dissociation rates.
The target of assay [2] is streptavidin (UniProt P22629). The experiment in a line: Biacore SPR, fusion protein immobilized by amine coupling, pulse of 23, 11.5 or 5.75 µM streptavidin. On the technique in general: SPR reads the build-up and loss of mass on a sensor chip optically.
Assay [3] has as its target streptavidin (UniProt P22629). In words: Biacore SPR, fusion protein immobilized by amine coupling, streptavidin 0.05-1.6 µM in flow.

“SB19-C4 streptavidin-binding fusion protein of maltose-binding protein, first 38 amino acids of SB19-C4 and hexahistidine tag (other; other documents disagree on this pair)”: the Kd (in general, the concentration at which binding is half-saturated) in the assay with streptavidin [1] was < 40 nM. Besides, in the assay with streptavidin [2], the off-rate constant (koff) (usually a measure of how fast the partners let go of each other) is < 0.002 s⁻¹. In the assay with streptavidin [3], the on-rate (kon) – broadly, the rate constant with which the complex forms – worked out at 50000 M⁻¹ s⁻¹.
